Laboratory results published in PubChem BioAssay AID2129 (The Scripps Research Institute Molecular Screening Center, 2009).
Only a part is listed here, and it is no random draw. Activity calls are given as the source filed them.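 How the source made its calls: active means inhibition above the mean of all tested compounds plus 3 SD, cutoff set per campaign (cut at about 30% in these data); inactive means the rest.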

Sequences of proteins named here, by UniProt entry; tags and fusion partners are left off.
UniProt Q07817, whole entry, looked up: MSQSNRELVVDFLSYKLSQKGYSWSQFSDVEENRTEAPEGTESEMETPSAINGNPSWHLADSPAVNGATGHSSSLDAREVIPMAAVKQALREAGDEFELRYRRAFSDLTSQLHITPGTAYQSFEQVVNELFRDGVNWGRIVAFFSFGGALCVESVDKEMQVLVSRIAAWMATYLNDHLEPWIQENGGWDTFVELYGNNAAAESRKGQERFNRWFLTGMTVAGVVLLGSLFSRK

Each compound was assayed against Bcl-2-like protein 1 (Homo sapiens) (UniProt Q07817) (assay: Bcl-xL/Bim BH3 interaction blockers – biochemical, fluorescence polarization, HTS, primary screen (AID 2129;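 further: 0% = DMSO wells and 100% = unlabeled Bim-BH3 peptide competitor; inhibitors lower millipolarization by displacing the labeled peptide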)). Conditions: GST-Bcl-xL / FITC-Bim BH3 peptide fluorescence polarization; at 10.9 µM; stronger effect = higher value.

SMILES | inhibition
CCCOP(=S)(Nc1nc(N)cc(=O)[nH]1)OCCC | inactive: 1.54%
Cc1ccc(NCCc2c([N+](=O)[O-])cc([N+](=O)[O-])cc2[N+](=O)[O-])cc1 | inactive: 10.3%
COc1cc(C2NCCC3(OCCO3)C2(C)C)cc(OC)c1OC (stereo not given) | inactive: -4.42%
CCOP(=O)(Nc1cccc2ccccc12)OCC | inactive: 3.8%
CS(=O)(=O)c1cc([N+](=O)[O-])c2no[n+]([O-])c2c1 | active: 50.4%
CCOP1(=S)c2c(C)nn(CCC#N)c2N=C(c2ccccc2F)N1C (stereo not given) | inactive: 1.02%
O=P(Nc1nccs1)(c1ccccc1)c1nc2ccccc2s1 (stereo not given) | inactive: -8.11%
O=P(Nc1nccs1)(Oc1ccccc1)Oc1ccccc1 | inactive: -0.85%
O=C(O)COc1ccc([As](=O)(O)O)cc1[N+](=O)[O-] | inactive: -1.27%
Nc1ccccc1[As](=O)(O)c1ccccc1 | inactive: 0.73%
NC(=O)Nc1ccc([As](=O)(O)O)cc1 | inactive: 7.65%
CN(C)C(=O)c1cc([N+](=O)[O-])cc2c1-c1c(cc([N+](=O)[O-])cc1[N+](=O)[O-])C2=O | inactive: 3.31%
O=[N+]([O-])c1ccc2c(c1)nnn2O | inactive: 8.2%
CN(C(=O)Cc1ccc(Cl)c(Cl)c1)[C@H]1CC[C@@]2(CCCO2)C[C@@H]1N1CCCC1 | inactive: 8.26%
N#CCCN(C(=O)COC(=O)C(O)(c1ccccc1)c1ccccc1)c1ccc(F)cc1 | inactive: 1.74%
CN(C(=O)Cc1ccccc1)[C@@H]1CC[C@]2(CCCO2)C[C@H]1N1CCCC1 | inactive: 8.37%
CCOP1(=S)c2c(C)nn(CCC#N)c2N=C(c2ccc(F)cc2)N1C (stereo not given) | inactive: 4.61%
O=[As](O)(c1ccc(O)cc1)c1ccccc1O | inactive: -1.7%
C[As](=O)(O)c1cccc(C(=O)O)c1 | inactive: 3.92%
COc1cc(C(=O)NCC2(N3CCOCC3)CCCCC2)ccc1OCC(C)C | inactive: 0.87%
Cc1ccc2nc3c(c(C)c2c1)CC(C(Cl)Cl)S3 (stereo not given) | inactive: 5.29%
Cc1ccc(OP(=O)(Nc2ccc([N+](=O)[O-])cn2)Oc2ccc(C)cc2)cc1 | inactive: 2.63%
CC(C)c1ccc(OP(=O)(Nc2ccccn2)Oc2ccccc2F)cc1 (stereo not given) | inactive: -1.72%

SMILES | inhibition
ClCCSc1nnc(-c2cccnc2)o1 | inactive: 0.97%
CCN(CC)C(=S)SC(NC=O)C(Cl)(Cl)Cl (stereo not given) | inactive: -2.4%
CC(C)NC(=O)NP(=O)(Oc1ccccc1)Oc1ccccc1 | inactive: 1.5%
O=[N+]([O-])c1cc([N+](=O)[O-])c(-c2ccn[nH]2)s1 | inactive: 4.65%
O=C(OC1CN2CCC1CC2)C12CC3CC(CC(C3)C1)C2 (stereo not given) | inactive: 3.79%
Cc1cc(=O)[nH]c(N[N+](=O)[O-])n1 | inactive: -2.41%
Cc1c2c(nc3ccccc13)SC(C(Cl)Cl)C2 (stereo not given) | inactive: 6.76%
COc1ccc2nc(NP(=O)(c3ccccc3)c3ccccc3)sc2c1 | inactive: 6.4%
COc1cc(I)ccc1[As](=O)(O)O | inactive: 5.6%
COc1ccc(N/C(=N/P(=O)(N2CCOCC2)N2CCOCC2)N2CCOCC2)cc1 | inactive: 9.1%
COP1(=S)c2c(C)nn(CCC#N)c2N=C(c2ccc(F)cc2)N1C (stereo not given) | inactive: 4.38%
O=C(COc1ccccc1)OC1CN2CCC1CC2 (stereo not given) | inactive: -2.97%
O=C(Nc1ccncc1[N+](=O)[O-])c1ccc([N+](=O)[O-])cc1[N+](=O)[O-] | inactive: 2.53%
CCOC(=O)c1ccc(NC(=O)C(C)(CCl)SC)cc1 (stereo not given) | inactive: -3.46%
O=C(OC1CN2CCC1CC2)c1cccc([N+](=O)[O-])c1 (stereo not given) | inactive: 2.42%
CCC(C)N(CC(C)C)C(=S)SC(NC(C)=O)C(Cl)(Cl)Cl (stereo not given) | inactive: 12.2%
CCOC(=O)Nc1ccc([As](=O)(O)O)c(O)c1 | inactive: -1.77%
Cc1cc(SC(NC(=O)c2ccccc2)C(Cl)(Cl)Cl)nc(C(C)C)n1 (stereo not given) | inactive: 9.25%
CCOC(=O)Nc1cccc([As](=O)(O)O)c1 | inactive: 2.86%
Cc1cc(SC(NC=O)C(Cl)(Cl)Cl)ncn1 (stereo not given) | inactive: 14.2%
O=P(Nc1ccccn1)(c1cccc2ccccc12)c1cccc2ccccc12 | inactive: 4.98%
O=C(Nc1cc([As](=O)(O)O)ccc1O)c1ccccc1 | inactive: 5.66%
CC(C)(C)C(=O)NC(Sc1ccncn1)C(Cl)(Cl)Cl (stereo not given) | inactive: 18%

SMILES | inhibition
O=[N+]([O-])c1ncn(CCn2ncnc2[N+](=O)[O-])n1 | inactive: -0.64%
O=[N+]([O-])c1cccc(NC2=NCC(CBr)S2)c1 (stereo not given) | inactive: 3.48%
COc1ccc(C2=NCC(CBr)S2)cc1 (stereo not given) | inactive: -0.13%
CC(=O)N1C2C3N(C(C)=O)C1C1N(C(C)=O)C(C(N1C(C)=O)N3C(C)=O)N2C(C)=O | inactive: 2.24%
O=[N+]([O-])c1cccc2n[nH]nc12 | inactive: 1.18%
Cc1ccc(NP(=O)(Oc2ccccc2)Oc2ccccc2)nc1 | inactive: -2.37%
O=[N+]([O-])c1cc([N+](=O)[O-])c(CCNc2ccccc2)c([N+](=O)[O-])c1 | inactive: -2.69%
CCc1nc2c(n1)c1c(non1O)c1c2no[n+]1[O-] | inactive: 4.77%
Nc1ccc([As](=O)(O)c2ccc(N)cc2)cc1 | inactive: -1.71%
C[N+]1=C2C=CC=CC=C2SC12C([N+](=O)[O-])=CC([N+](=O)[O-])=C[C-]2[N+](=O)[O-] (stereo not given) | inactive: 27.4%
CCN(/C(=N/P(=O)(N1CCOCC1)N1CCOCC1)N1CCOCC1)c1ccc(OC)cc1 | inactive: 2.39%
CC(C)=N/N=C(\N)N[N+](=O)[O-] | inactive: 3.61%
CN(C)C(=O)OCCc1n(C)cc[n+]1C | inactive: 4.57%
CC1CCN(C(=O)Oc2c(Cl)cc(Cl)c3cccnc23)CC1 | inactive: -0.96%
NC(=O)c1cc([N+](=O)[O-])cc([N+](=O)[O-])c1N | inactive: 2.25%
CN(C(=O)Cc1ccc(Cl)c(Cl)c1)[C@H]1CCCC[C@H]1N1CCCC1 | inactive: 3.99%
Cc1ccc(N/C(=N/P(=O)(N2CCOCC2)N2CCOCC2)N2CCOCC2)cc1 | inactive: 6.26%
COc1ccccc1OP(=O)(Nc1ccc(C)cn1)Oc1ccccc1OC | inactive: 0.29%
Cc1ccc(OP(=O)(Nc2nccs2)Oc2ccc(C)cc2)cc1 | inactive: 6.04%
Clc1ccc(Cl)c(NC2=NCC(CBr)S2)c1 (stereo not given) | inactive: 1.7%
CN1CCCC(OC(=O)C(c2ccccc2)c2ccccc2)C1 (stereo not given) | inactive: -2.24%
CC(C)CC(=O)NC(Sc1ccc(Cl)cc1)C(Cl)(Cl)Cl (stereo not given) | inactive: -0.75%
Nc1cc(N)c2nonc2c1[N+](=O)[O-] | inactive: -2.36%

SMILES | inhibition
Oc1ccccc1CNc1ccccn1 | inactive: 2.71%
Cc1c2non([O-])c-2c(C)[n+](=O)[n+]1[O-] | inactive: -0.85%
O=C(O)c1ccccc1[As](=O)(O)O | inactive: 3.15%
CC(=O)Nc1ccc([As](=O)(O)O)cc1 | inactive: 6.34%
O=P(Nc1nc2ccc(Cl)cc2s1)(c1ccccc1)c1ccccc1 | inactive: 2.23%
CCOP(=O)(Nc1ccccc1)OCC | inactive: 10.5%
Cc1cc(SC(NC(=O)c2ccc(F)cc2)C(Cl)(Cl)Cl)ncn1 (stereo not given) | inactive: 9.69%
CN(C(=O)Cc1ccc(Cl)c(Cl)c1)[C@H]1CCCC[C@@H]1N1CCCC1 | active: 34.6%
Cc1ccc(NP(=O)(Oc2ccccc2F)Oc2ccccc2F)nc1 | inactive: 1.67%
O=[N+]([O-])c1cc([N+](=O)[O-])c(CCN2CCOCC2)c([N+](=O)[O-])c1 | inactive: 13.8%
CCN(N=Nc1nonc1N)c1nonc1N | inactive: 1.96%
O=C(NC1CCS(=O)(=O)C1)NP(=S)(Oc1ccccc1)Oc1ccccc1 (stereo not given) | inactive: 5.41%
CCNC(=S)/N=C(\N)N[N+](=O)[O-] | inactive: -0.45%
c1ccc(-c2nn[nH]n2)c(-c2nn[nH]n2)c1 | inactive: 2.93%
Cc1ccc(NP(=O)(Oc2cccc(C)c2)Oc2cccc(C)c2)nc1 | inactive: 3.54%
CCOC(=O)NC(Sc1ccccc1)C(Cl)(Cl)Cl (stereo not given) | inactive: 4.94%
COC(=O)c1cc2c(s1)N=C(c1ccccc1)N(C)P2(=O)N1CCOCC1 (stereo not given) | inactive: 7.42%
CC(=O)NC(SC(=S)N(CC(C)C)CC(C)C)C(Cl)(Cl)Cl (stereo not given) | inactive: -0.27%
Cc1ccc(OP(=O)(Nc2ccccn2)Oc2ccc(C)cc2)cc1 | inactive: -0.65%
O=C(OC1CN2CCC1CC2)c1ccccc1 (stereo not given) | inactive: -1.69%
CCC(=O)N1C2C3N(C(=O)CC)C1C1N(C(=O)CC)C(C(N1C(=O)CC)N3C(=O)CC)N2C(=O)CC | inactive: -1.23%
Cc1ccccc1OP(=O)(Nc1ccccn1)Oc1ccccc1C | inactive: 4.22%
CN(C)C(=O)Oc1noc2ccccc12 | inactive: 2.45%

SMILES | inhibition
O=P1(Nc2nc3ccc(Cl)cc3s2)COc2ccccc2O1 (stereo not given) | inactive: 5.6%
CCOc1ccc(C2=NCC(CBr)S2)cc1 (stereo not given) | inactive: 1.98%
CC(C)(C)C(=O)NC(Sc1ccccc1)C(Cl)(Cl)Cl (stereo not given) | inactive: 0.88%
CC(=O)c1ccc(N2CC2c2ccncc2)cc1 (stereo not given) | inactive: 6.56%
Cc1ccccc1CN(C)C(=O)COC(=O)C(O)(c1ccccc1)c1ccccc1 | inactive: -0.6%
C[C@@H]1C=CCP(=O)(Oc2ccccc2)O1 (stereo not given in full) | inactive: 3.03%
C[C@H]1OP(=O)(Oc2ccccc2)C[C@@H]2O[C@@H]21 (stereo not given in full) | inactive: -1.37%
CC(=O)Nc1ccc([As](=O)(O)O)c(O)c1 | inactive: 1.06%
CC(=O)Nc1ccc(Oc2c([N+](=O)[O-])cc([N+](=O)[O-])cc2[N+](=O)[O-])cc1 | inactive: 7.32%
O=P(Nc1nccs1)(c1ccccc1)c1ccccc1 | inactive: 2.77%
CC(C)C(=O)NC(Sc1ccccc1)C(Cl)(Cl)Cl (stereo not given) | inactive: 3.4%
c1nnnn1CCn1cnnn1 | inactive: 2.25%
CN(C)C1(CNC(=O)c2ccc(Cl)c(S(N)(=O)=O)c2)CCCCC1 | inactive: -1.2%
O=P(Nc1ccccn1)(c1ccc(Br)cc1)c1ccc(Br)cc1 | inactive: 2.97%
O=P(Nc1nc2ccccc2s1)(c1ccccc1)c1ccccc1 | inactive: 0.39%
C[C@H]1OP(=O)(Oc2ccccc2)[C@H](O)[C@H](O)[C@H]1N=[N+]=[N-] (stereo not given in full) | inactive: 3.13%
CC(=O)NC(SC(=S)N(C)C)C(Cl)(Cl)Cl (stereo not given) | inactive: 4.52%
O=[N+]([O-])c1ncn(CCn2cnc([N+](=O)[O-])n2)n1 | inactive: 3.41%
O=[N+]([O-])c1ccc(O)c(/C=N/Nc2ccc([N+](=O)[O-])cc2[N+](=O)[O-])c1 | inactive: 0.68%
O=[As](O)(c1ccccc1)c1ccc(O)cc1 | inactive: 2.32%
Nc1ccc([As](=O)(O)c2ccc([N+](=O)[O-])cc2)cc1 | inactive: 0.83%
C(Cc1nn[nH]n1)Cc1nn[nH]n1 | inactive: 1.75%
O=C(OC1CN2CCC1CC2)c1cccc(Cl)c1 (stereo not given) | inactive: 1.48%
